Laboratory results as given in PubChem BioAssay (NCI).
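Five compound concentrations were applied to cells in 96-well plates for 48 hours; endpoints were derived by simple linear interpolation of the resulting dose-response curve. GI50 marks 50% less growth. TGI is the concentration that stops growth completely.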

Tests used:
Assay in all cases: inhibition of tumour cell growth, NCI panel, 48 h
SK-MEL-2 melanoma = system: SK-MEL-2 melanoma
NCI/ADR-RES ovarian = system: NCI/ADR-RES ovarian
MOLT-4 leukemia = system: MOLT-4 leukemia
IGROV1 ovarian = system: IGROV1 ovarian
786-0 renal = system: 786-0 renal
M14 melanoma = system: M14 melanoma
UACC-62 melanoma = system: UACC-62 melanoma
MDA-MB-231 breast = system: MDA-MB-231 breast
HCC-2998 colon = system: HCC-2998 colon
NCI-H23 lung = system: NCI-H23 lung
TK-10 renal = system: TK-10 renal
RXF 393 renal = system: RXF 393 renal
SK-OV-3 ovarian = system: SK-OV-3 ovarian
OVCAR-4 ovarian = system: OVCAR-4 ovarian
KM12 colon = system: KM12 colon
PC-3 prostate = system: PC-3 prostate
CCRF-CEM leukemia = system: CCRF-CEM leukemia
HS 578T breast = system: HS 578T breast
MALME-3M melanoma = system: MALME-3M melanoma
BT-549 breast = system: BT-549 breast
MCF7 breast = system: MCF7 breast
OVCAR-8 ovarian = system: OVCAR-8 ovarian
OVCAR-3 ovarian = system: OVCAR-3 ovarian
NCI-H460 lung = system: NCI-H460 lung
NCI-H322M lung = system: NCI-H322M lung
HCT-116 colon = system: HCT-116 colon
A498 renal = system: A498 renal
EKVX NSCLC = system: EKVX NSCLC
SNB-19 CNS = system: SNB-19 CNS
SK-MEL-5 melanoma = system: SK-MEL-5 melanoma
SF-268 CNS = system: SF-268 CNS
HCT-15 colon = system: HCT-15 colon
LOX IMVI melanoma = system: LOX IMVI melanoma
SK-MEL-28 melanoma = system: SK-MEL-28 melanoma
NCI-H522 lung = system: NCI-H522 lung
CAKI-1 renal = system: CAKI-1 renal
ACHN renal = system: ACHN renal
T-47D breast = system: T-47D breast
NCI-H226 lung = system: NCI-H226 lung
RPMI-8226 leukemia = system: RPMI-8226 leukemia
U251 CNS = system: U251 CNS
COLO 205 colon = system: COLO 205 colon
DU-145 prostate = system: DU-145 prostate
SF-539 CNS = system: SF-539 CNS
HOP-62 NSCLC = system: HOP-62 NSCLC
SNB-75 CNS = system: SNB-75 CNS
HL-60(TB) leukemia = system: HL-60(TB) leukemia
UO-31 renal = system: UO-31 renal
A549 NSCLC = system: A549 NSCLC
OVCAR-5 ovarian = system: OVCAR-5 ovarian
HT29 colon = system: HT29 colon
SN12C renal = system: SN12C renal
HOP-92 NSCLC = system: HOP-92 NSCLC
SR leukemia = system: SR leukemia
UACC-257 melanoma = system: UACC-257 melanoma
K-562 leukemia = system: K-562 leukemia
MDA-MB-435 = system: MDA-MB-435
SF-295 CNS = system: SF-295 CNS
SW-620 colon = system: SW-620 colon

N#CC1(Nc2ccc(Cl)cc2)CCN(Cc2ccccc2)CC1 was tested, and the GI50 (SK-MEL-2 melanoma) was 15.1 µM, the TGI (SK-MEL-2 melanoma) was over 100 µM and the GI50 (NCI/ADR-RES ovarian) was 21.6 µM. For the same compound, the TGI (NCI/ADR-RES ovarian) was over 100 µM, the GI50 (MOLT-4 leukemia) was 3.17 µM and the TGI (MOLT-4 leukemia) was 60.7 µM. For the same compound, the GI50 (IGROV1 ovarian) was 30 µM, the TGI (IGROV1 ovarian) was over 100 µM and the GI50 (786-0 renal) was 2.74 µM. The TGI (786-0 renal) was over 100 µM, the GI50 (M14 melanoma) was 0.333 µM and the TGI (M14 melanoma) was 36.7 µM. The GI50 (UACC-62 melanoma) was 0.187 µM, the TGI (UACC-62 melanoma) was over 100 µM and the GI50 (MDA-MB-231 breast) was 10.5 µM. For the same compound, the TGI (MDA-MB-231 breast) was over 100 µM, the GI50 (HCC-2998 colon) was 3.4 µM and the TGI (HCC-2998 colon) was 87.3 µM. The GI50 (NCI-H23 lung) was 34 µM, the TGI (NCI-H23 lung) was over 100 µM and the GI50 (TK-10 renal) was 14.1 µM. For the same compound, the TGI (TK-10 renal) was over 100 µM, the GI50 (RXF 393 renal) was over 100 µM and the TGI (RXF 393 renal) was over 100 µM. The GI50 (SK-OV-3 ovarian) was over 100 µM, the TGI (SK-OV-3 ovarian) was over 100 µM and the GI50 (OVCAR-4 ovarian) was 55.8 µM. For the same compound, the TGI (OVCAR-4 ovarian) was over 100 µM, the GI50 (KM12 colon) was 0.758 µM and the TGI (KM12 colon) was over 100 µM. It also gave a GI50 (PC-3 prostate) of 22.2 µM, a TGI (PC-3 prostate) of over 100 µM and a GI50 (CCRF-CEM leukemia) of 2.11 µM. The TGI (CCRF-CEM leukemia) was over 100 µM, the GI50 (HS 578T breast) was over 100 µM and the TGI (HS 578T breast) was over 100 µM. The GI50 (MALME-3M melanoma) was 87.1 µM, the TGI (MALME-3M melanoma) was over 100 µM and the GI50 (BT-549 breast) was 4.17 µM. The TGI (BT-549 breast) was over 100 µM, the GI50 (MCF7 breast) was 4.74 µM and the TGI (MCF7 breast) was over 100 µM. It also gave a GI50 (OVCAR-8 ovarian) of 30.4 µM, a TGI (OVCAR-8 ovarian) of over 100 µM and a GI50 (OVCAR-3 ovarian) of 16.1 µM. The TGI (OVCAR-3 ovarian) was over 100 µM, the GI50 (NCI-H460 lung) was 0.793 µM and the TGI (NCI-H460 lung) was over 100 µM. For the same compound, the GI50 (NCI-H322M lung) was over 100 µM, the TGI (NCI-H322M lung) was over 100 µM and the GI50 (HCT-116 colon) was 3.88 µM. It also gave a TGI (HCT-116 colon) of over 100 µM, a GI50 (A498 renal) of 21.9 µM and a TGI (A498 renal) of over 100 µM. It also gave a GI50 (EKVX NSCLC) of 83.3 µM, a TGI (EKVX NSCLC) of over 100 µM and a GI50 (SNB-19 CNS) of 62.9 µM. The TGI (SNB-19 CNS) was over 100 µM, the GI50 (SK-MEL-5 melanoma) was 0.756 µM and the TGI (SK-MEL-5 melanoma) was 13.3 µM. It also gave a GI50 (SF-268 CNS) of 40.2 µM, a TGI (SF-268 CNS) of over 100 µM and a GI50 (HCT-15 colon) of 0.664 µM. It also gave a TGI (HCT-15 colon) of over 100 µM, a GI50 (LOX IMVI melanoma) of 0.463 µM and a TGI (LOX IMVI melanoma) of over 100 µM. The GI50 (SK-MEL-28 melanoma) was 60.4 µM, the TGI (SK-MEL-28 melanoma) was over 100 µM and the GI50 (NCI-H522 lung) was 29.4 µM. For the same compound, the TGI (NCI-H522 lung) was over 100 µM, the GI50 (CAKI-1 renal) was 0.612 µM and the TGI (CAKI-1 renal) was over 100 µM. The GI50 (ACHN renal) was 0.491 µM, the TGI (ACHN renal) was over 100 µM and the GI50 (T-47D breast) was 1.8 µM. The TGI (T-47D breast) was over 100 µM, the GI50 (NCI-H226 lung) was 22.7 µM and the TGI (NCI-H226 lung) was over 100 µM. The GI50 (RPMI-8226 leukemia) was 4.3 µM, the TGI (RPMI-8226 leukemia) was over 100 µM and the GI50 (U251 CNS) was 17.3 µM. The TGI (U251 CNS) was over 100 µM, the GI50 (COLO 205 colon) was 0.869 µM and the TGI (COLO 205 colon) was 4.98 µM. It also gave a GI50 (DU-145 prostate) of over 100 µM, a TGI (DU-145 prostate) of over 100 µM and a GI50 (SF-539 CNS) of 8.16 µM. The TGI (SF-539 CNS) was over 100 µM, the GI50 (HOP-62 NSCLC) was 59 µM and the TGI (HOP-62 NSCLC) was over 100 µM. It also gave a GI50 (SNB-75 CNS) of 57 µM, a TGI (SNB-75 CNS) of over 100 µM and a GI50 (HL-60(TB) leukemia) of 3.47 µM. For the same compound, the TGI (HL-60(TB) leukemia) was over 100 µM, the GI50 (UO-31 renal) was 7.81 µM and the TGI (UO-31 renal) was over 100 µM. For the same compound, the GI50 (A549 NSCLC) was 2.82 µM, the TGI (A549 NSCLC) was over 100 µM and the GI50 (OVCAR-5 ovarian) was 1.63 µM. It also gave a TGI (OVCAR-5 ovarian) of over 100 µM, a GI50 (HT29 colon) of over 100 µM and a TGI (HT29 colon) of over 100 µM. The GI50 (SN12C renal) was 28.6 µM, the TGI (SN12C renal) was over 100 µM and the GI50 (HOP-92 NSCLC) was 35.3 µM. It also gave a TGI (HOP-92 NSCLC) of over 100 µM, a GI50 (SR leukemia) of 7.31 µM and a TGI (SR leukemia) of over 100 µM. The GI50 (UACC-257 melanoma) was 21.7 µM, the TGI (UACC-257 melanoma) was over 100 µM and the GI50 (K-562 leukemia) was 0.156 µM. For the same compound, the TGI (K-562 leukemia) was over 100 µM, the GI50 (MDA-MB-435) was 1.34 µM and the TGI (MDA-MB-435) was over 100 µM. The GI50 (SF-295 CNS) was 0.979 µM, the TGI (SF-295 CNS) was over 100 µM and the GI50 (SW-620 colon) was 2.14 µM. The TGI (SW-620 colon) was over 100 µM.
